Structures are written as SMILES.

Protein sequences, listed by entry. Tags and fused reporters are not part of them. Residues count along the entry.
UniProt P56817, 22-460 limits assumed: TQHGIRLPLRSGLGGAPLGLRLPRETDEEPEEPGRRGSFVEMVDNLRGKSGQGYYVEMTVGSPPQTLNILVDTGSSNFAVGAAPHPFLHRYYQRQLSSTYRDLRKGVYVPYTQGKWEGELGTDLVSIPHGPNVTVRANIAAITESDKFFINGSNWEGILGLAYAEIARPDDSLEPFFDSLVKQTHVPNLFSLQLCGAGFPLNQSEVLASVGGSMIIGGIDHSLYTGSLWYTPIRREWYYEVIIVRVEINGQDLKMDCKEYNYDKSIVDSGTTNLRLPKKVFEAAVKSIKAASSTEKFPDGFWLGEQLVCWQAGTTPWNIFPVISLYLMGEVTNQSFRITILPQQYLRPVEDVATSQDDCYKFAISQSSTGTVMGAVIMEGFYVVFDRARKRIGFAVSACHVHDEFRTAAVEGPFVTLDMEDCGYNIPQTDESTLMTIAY

The target in assay [1] is human β-Secretase (sBACE-Fc, soluble part AA 1-AA 460) (Homo sapiens (Human), UniProt P56817). Briefly: TR-FRET assay. The assay is classed as biochemical. The note with it: read-out: IC50 in TR-FRET assay; standard TR-FRET assay (values without footnote a).
In assay [2] the test system is sAPPβ release in SH-SY5Y cells. Briefly: sAPPβ release assay. The assay is classed as cell-based. The note with it: read-out: IC50 in sAPPβ release assay, 17 h incubation.

`CC1=N[C@@]2(N=C1N)c1cc(Br)ccc1C[C@]21CC[C@@H](O)CC1` (single isomer, unassigned): in assay [1], the IC50 was above 4950 nM.
For the compound `CC1=N[C@@]2(N=C1N)c1cc(OCC(C)C)ccc1C[C@]21CC[C@@H](O)CC1` (single isomer, unassigned), in assay [1], the IC50 was above 5000 nM.
As for `CO[C@H]1CC[C@]2(CC1)Cc1ccc(C#CC(C)C)cc1[C@]21N=C(C)C(N)=N1` (single isomer, unassigned), in assay [2], the IC50 was 56 nM.
Regarding `CO[C@H]1CC[C@]2(CC1)Cc1ccc(C#CC3CCC3)cc1[C@]21N=C(C)C(N)=N1` (single isomer, unassigned), in assay [2], the half-maximal inhibitory concentration (IC50) came out at 678 nM.
